Reference: PubChem BioAssay AID817 (Emory University Molecular Libraries Screening Center, 2007)
The entries are a selection whose mix differs from that of the whole data set. Activity calls are given as the source filed them.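 Rule for the calls: active = z-score above 3 at both the 24 hr and the 30 hr optical density reads; inactive = the rest, inconclusive results apart.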

Assay: restorers of sdo1-deficient yeast growth – S. cerevisiae, bone marrow failure model, primary screen (AID 817);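 note: z-score against mean and SD of all compound wells on the same plate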
Settings: S. cerevisiae sdo1-depleted JHY4D growth rescue, OD600 30 h; at 10 µM; stronger effect = higher value; pdr5 snq2 efflux-pump mutant strain

| Structure (SMILES) | z-score |
| --- | --- |
| CCc1nc2c(n1)c1c(non1O)c1c2no[n+]1[O-] | inactive: -0.5 |
| CP(=O)(Oc1ccccc1)N1CCOC1=O (stereo unspecified) | inactive: 1.26 |
| O=[N+]([O-])c1cccc2n[nH]nc12 | inactive: -0.18 |
| CC(=O)N1C2C3N(C(C)=O)C1C1N(C(C)=O)C(C(N1C(C)=O)N3C(C)=O)N2C(C)=O | inactive: 1.37 |
| COc1ccc(OP(C)(=O)Nc2ccc(Br)cc2)cc1 (stereo unspecified) | inactive: 0.2 |
| CCN(CC)CC(O)COC(=O)C(O)(c1ccccc1)C1CCCCC1 (stereo unspecified) | inactive: 1.98 |
| CC1CCN(C(=O)Oc2c(Cl)cc(Cl)c3cccnc23)CC1 | inactive: -1.07 |
| CN(C)C(=O)OCCc1n(C)cc[n+]1C | inactive: 1.28 |
| CP(=O)(Nc1ccc(Cl)cc1)Oc1ccc(F)cc1 (stereo unspecified) | inactive: 0.5 |
| CC(C)(C)c1ccc(OP(C)(=O)O)cc1 | inactive: 0.54 |
| CP(=O)(OC12CC3CC(CC(C3)C1)C2)OC12CC3CC(CC(C3)C1)C2 | inactive: -0.66 |
| CCOC(=O)c1ccc(NP(C)(=O)Oc2ccc(Cl)cc2)cc1 (stereo unspecified) | inactive: -0.94 |
| COc1ccc(OP(C)(=O)Nc2ccccc2Br)cc1 (stereo unspecified) | inactive: 0.17 |
| COc1ccccc1OP(C)(=O)Nc1ccc(C)c(C)c1 (stereo unspecified) | inactive: 0.48 |
| CCOP(=O)(Nc1ccccc1)OCC | inactive: 0.49 |
| Cc1cc(SC(NC(=O)c2ccc(F)cc2)C(Cl)(Cl)Cl)ncn1 (stereo unspecified) | inactive: 0.55 |
| CCN(N=Nc1nonc1N)c1nonc1N | inactive: 0.47 |
| Cc1nc2ccc3ccccc3c2o1.O=[N+]([O-])c1cc([N+](=O)[O-])c(O)c([N+](=O)[O-])c1 | inactive: -0.33 |
| CN(C)CCOC(=O)C(O)(c1ccccc1)C1CCCC1 (stereo unspecified) | inactive: 0.05 |
| CN1CCCC(OC(=O)C(c2ccccc2)c2ccccc2)C1 (stereo unspecified) | inactive: 0.86 |
| COc1ccc(OP(C)(=O)Nc2ccccn2)cc1 (stereo unspecified) | inactive: 0.14 |
| CCc1ccc(OP(C)(=O)O)cc1 | inactive: -0.15 |

| Structure (SMILES) | z-score |
| --- | --- |
| COc1ccccc1OP(C)(=O)Nc1ccc(C)cc1C (stereo unspecified) | inactive: 0.33 |
| CP(=O)(Nc1ccccn1)Oc1ccccc1 (stereo unspecified) | inactive: 1.1 |
| Cc1c2non([O-])c-2c(C)[n+](=O)[n+]1[O-] | inactive: -1.4 |
| O=C(NC(Sc1ccncn1)C(Cl)(Cl)Cl)c1ccccc1 (stereo unspecified) | inactive: 0.76 |
| Oc1ccccc1CNc1ccccn1 | inactive: 0.77 |
| CC(C)CC(=O)NC(Sc1ccc(Cl)cc1)C(Cl)(Cl)Cl (stereo unspecified) | inactive: 0.18 |
| Cc1c(NP(C)(=O)Oc2ccc(C(C)C)cc2)c(=O)n(-c2ccccc2)n1C (stereo unspecified) | inactive: 0.32 |
| CC(C)c1ccc(OP(C)(=O)Nc2ccc(SC(F)(F)F)cc2)cc1 (stereo unspecified) | inactive: -0.45 |
| CP(=O)(Nc1ccccc1F)Oc1ccccc1 (stereo unspecified) | inactive: 0.8 |
| O=P1(Nc2nc3ccc(Cl)cc3s2)COc2ccccc2O1 (stereo unspecified) | inactive: 1.34 |
| O=C(OCCN1CCN(CCOCc2ccccc2)CC1)C(O)(c1ccccc1)c1ccccc1 | inactive: 0.36 |
| CCOC(=O)c1ccc(NP(C)(=O)Oc2ccc(F)cc2)cc1 (stereo unspecified) | inactive: -0.4 |
| CCOC(=O)NC(Sc1ccccc1)C(Cl)(Cl)Cl (stereo unspecified) | inactive: 0.1 |
| CP(=O)(Nc1ccccc1)Oc1ccc(F)cc1 (stereo unspecified) | inactive: -0.34 |
| CCN(CC)CCCOC(=O)C(O)(c1ccccc1)C1CCCCC1 (stereo unspecified) | inactive: -0.07 |
| CCC(=O)N1C2C3N(C(=O)CC)C1C1N(C(=O)CC)C(C(N1C(=O)CC)N3C(=O)CC)N2C(=O)CC | inactive: -0.43 |
| CC(=O)NC(SC(=S)N(CC(C)C)CC(C)C)C(Cl)(Cl)Cl (stereo unspecified) | inactive: -0.62 |
| COC(=O)c1cc2c(s1)N=C(c1ccccc1)N(C)P2(=O)N1CCOCC1 (stereo unspecified) | inactive: -0.2 |
| CN(C)CCOC(=O)C(O)(c1ccccc1)C1CCCCC1 (stereo unspecified) | inactive: 0.36 |
| COc1ccc(OP(C)(=O)Nc2cccc(Br)c2)cc1 (stereo unspecified) | inactive: -0.78 |
| O=C(OC1CN2CCC1CC2)c1cccc(Cl)c1 (stereo unspecified) | inactive: 0.6 |
| C(Cc1nn[nH]n1)Cc1nn[nH]n1 | inactive: 0.4 |

| Structure (SMILES) | z-score |
| --- | --- |
| CC(=O)NC(SC(=S)N(C)C)C(Cl)(Cl)Cl (stereo unspecified) | inactive: -2.06 |
| c1nnnn1CCn1cnnn1 | inactive: 0.53 |
| CCOP(C)(=S)SCC(=O)NC(C)(CC)C(=O)O (stereo unspecified) | inactive: 0.24 |
| CC(C)C(=O)NC(Sc1ccccc1)C(Cl)(Cl)Cl (stereo unspecified) | inactive: 0.32 |
| O=P(Nc1nccs1)(c1ccccc1)c1ccccc1 | inactive: 0.69 |
| Cc1ccccc1NP(C)(=O)Nc1ccccc1C | inactive: 0.13 |
| CP(=O)(Nc1ccc2c(c1)OCCO2)Oc1ccccc1 (stereo unspecified) | inactive: -0.14 |
| Clc1n[nH]nc1-c1nn[nH][15n]1 | inactive: 0.43 |
| O=P1(Nc2ccccn2)COc2ccccc2OC1 | inactive: 0.52 |
| Cc1nc2ccc3ccccc3c2s1.O=[N+]([O-])c1cc([N+](=O)[O-])c(O)c([N+](=O)[O-])c1 | inactive: -1.13 |
| Cc1nn(-c2ccccc2)c2c1P(=O)(N1CCOCC1)N(C)C(c1ccccc1)=N2 (stereo unspecified) | inactive: 0.25 |
| COc1cc(C2NCCC3(OCCO3)C2(C)C)cc(OC)c1OC.O=[N+]([O-])c1cc([N+](=O)[O-])c(O)c([N+](=O)[O-])c1 (stereo unspecified) | inactive: 0.89 |
| CP(=O)(Nc1ccc(SC(F)(F)F)cc1)Oc1ccccc1 (stereo unspecified) | inactive: -0.55 |
| O=P1(Nc2ccc(Br)cn2)COc2ccccc2OC1 | inactive: -1.04 |
| Cc1ccc(OCC(=O)OC2CN3CCC2CC3)cc1 (stereo unspecified) | inactive: 0.47 |
| O=P1(Nc2ncccn2)COc2ccccc2OC1 | inactive: 0.61 |
| COc1ccccc1OP(C)(=O)Nc1c(C)cccc1C (stereo unspecified) | inactive: 0.42 |
| CN1CCCCC1COC(=O)C1(O)c2ccccc2CCc2ccccc21 (stereo unspecified) | inactive: 0.46 |
| O=P(Nc1nccs1)(c1ccccc1)c1nc2ccccc2s1 (stereo unspecified) | inactive: -0.64 |
| CCOP1(=S)c2c(C)nn(CCC#N)c2N=C(c2ccccc2F)N1C (stereo unspecified) | inactive: -0.12 |
| CCOP1(=S)c2c(C)nn(CCC#N)c2N=C(c2ccc(F)cc2)N1C (stereo unspecified) | inactive: 0.62 |
| CC1=NCCc2c1[nH]c1ccccc21.O=[N+]([O-])c1cc([N+](=O)[O-])c(O)c([N+](=O)[O-])c1 | inactive: 0.37 |
